The values that follow come from PubChem BioAssay AID652 (University of Pittsburgh Molecular Library Screening Center, 2007).

The target of the assay is Gag-Pol polyprotein (Human immunodeficiency virus type 1 group M subtype B (isolate HXB2)) (UniProt P04585). Put plainly: concentration-response of HIV-1 RNase H blockers – biochemical, probe assessment, dose response (AID 652). The conditions noted are these: HIV-1 RT RNase H enzymatic assay, at 50 µM, stronger effect = higher value.

The list shows a part of the results, in another mix than the full data.

The compound `COc1cc(/C=C/C(=O)CC(=O)/C=C/c2ccc(O)c(OC)c2)ccc1O` showed an inhibition of 87%.

One may read the inhibition as the relative decrease from the control value, in per cent.
